## AlphaSeq binding of Ab-14 heavy chain variants to a spike HR2 peptide

From the AlphaSeq antibody data of Li et al. 2023 (doi:10.1038/s41467-023-39022-2), copy in the FLAb collection.

The target is the same throughout: PDVDLGDISGINAS, from the HR2 region of SARS-CoV-2 spike.

Parent scFv Ab-14: VH joined to VL by the linker GGGGSGGGGSGGGGS. Changes lie in the heavy chain CDRs alone.
VH: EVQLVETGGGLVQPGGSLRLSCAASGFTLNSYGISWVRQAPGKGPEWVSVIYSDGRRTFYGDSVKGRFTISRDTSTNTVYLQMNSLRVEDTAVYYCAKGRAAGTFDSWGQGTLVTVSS
VL: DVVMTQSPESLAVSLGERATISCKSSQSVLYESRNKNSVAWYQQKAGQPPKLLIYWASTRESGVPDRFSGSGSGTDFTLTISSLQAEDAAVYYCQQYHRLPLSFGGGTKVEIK

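Phage display of a naive human antibody library on the peptide gave the parent. This is the validation round: designs drawn from the data on random variants, tested in the same kind of assay. Group labels follow the data file (Ctrl: baseline library sampled from a position-specific scoring matrix, with some repeated check sequences; GPLM: also part of the Gaussian process libraries; Gen: genetic algorithm; a sequence that several methods proposed may carry one label only). Affinity was read by AlphaSeq, a pooled yeast mating assay with surface-displayed partners. Binding brings cells together so that they mate, and sequencing counts the barcode pairs among the diploids. The ratio of observed to expected reads was calibrated, replicate by replicate, on BCL2-family standards whose Kd was known from biolayer interferometry. Mating was done six times.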

Changes read parent residue, position, new residue, counted from the first residue of the VH shown.
Numbers give log10(Kd / nM), so 0 is 1 nM and 3 is 1 µM. Smaller is tighter.
Replicates are averaged; those with no signal do not enter the mean.
"ND" means that the variant was in the library but no mating with the target was seen in that replicate; the authors take this as a sign of poor binding, and no number exists.

changes,group,"replicates, log10 nM",mean log10 Kd (nM),control signals
G61L+R100M+G103C,Ctrl,ND ND ND ND ND ND,ND,0 of 18
G26T+K65V,Ctrl,ND ND ND ND ND ND,ND,0 of 18
K65L,Ctrl,ND ND ND ND ND ND,ND,0 of 18
T28E+S107T,Ctrl,0.73 0.78 0.74 0.58 0.69 0.65,0.69,0 of 18
R100G+A102E+G103W,Ctrl,ND ND ND ND ND ND,ND,0 of 18
T28N+S31E+S53A+R56M+S107H,Ctrl,-0.05 -0.29 -0.06 -0.01 0.22 0.10,-0.01,0 of 18
T28D+D106P+S107K,Ctrl,ND ND ND ND ND ND,ND,0 of 18
F59M+G103H,Ctrl,ND ND ND ND ND ND,ND,0 of 18
L29I+N30E+R100K+G103D,Ctrl,ND ND ND ND ND ND,ND,0 of 18
S31Q+S107A,Ctrl,1.16 ND 0.89 0.95 2.31 0.60,1.18,0 of 18
G33N+D106I,Ctrl,ND ND ND ND ND 0.24,0.24,0 of 18
Y32Q+G61H+R100M+A101P,Ctrl,0.43 0.60 0.54 0.22 0.22 0.62,0.44,0 of 18
S53A+T58C+R100K+F105S,Ctrl,ND 1.24 ND 1.50 2.02 1.16,1.48,0 of 18
T28D+S31E+R100D+S107Q,Ctrl,0.37 0.16 0.20 -0.25 -0.25 0.53,0.12,1 of 18 (1.74)
T28N+N30E,Ctrl,ND 1.14 1.96 1.02 1.02 1.60,1.35,0 of 18
I34R+A102P,Ctrl,ND ND ND ND ND ND,ND,0 of 18
S63D+R100D,Ctrl,2.48 1.57 1.70 1.89 1.44 1.63,1.78,0 of 18
G103F+T104R+S107L,Ctrl,ND ND ND ND ND ND,ND,0 of 18
R100E+A101G,Ctrl,ND 1.67 2.08 2.23 1.82 2.09,1.98,0 of 18
N30L+R100E+A101N+A102S,Ctrl,ND ND ND ND ND ND,ND,0 of 18
S31E+G103L,Ctrl,1.22 0.39 ND 2.15 ND 1.88,1.41,0 of 18
S31K+D106S,Ctrl,ND ND ND ND ND ND,ND,0 of 18
G61D+A101G+F105D,Ctrl,ND ND ND ND ND ND,ND,0 of 18
S35K+T104D,Ctrl,ND ND ND ND ND ND,ND,0 of 18
N30G+S63Q+K65R+A101H,Ctrl,ND ND ND ND ND ND,ND,0 of 18
T28N+S35T,Ctrl,ND 1.81 1.59 2.68 3.91 1.89,2.38,1 of 18 (1.55)
L29M+R100S,Ctrl,ND 1.22 1.51 ND ND ND,1.37,2 of 18 (2.16)
N30V+T58V,Ctrl,ND ND ND ND ND ND,ND,0 of 18
T28K+N30Q+G99Q+D106P,Ctrl,ND ND ND ND ND ND,ND,0 of 18
R56E+A101D+T104Q,Ctrl,ND ND ND ND ND ND,ND,0 of 18
S53A+F59A+G61A+T104C+D106I,Ctrl,ND ND ND ND ND ND,ND,0 of 18
T28N+T58E+G61S+A102T+T104H,Ctrl,ND ND ND ND ND ND,ND,0 of 18
T58V+A101L+T104Y+S107T,Ctrl,ND ND ND ND ND ND,ND,1 of 18 (1.77)
T104E+D106S+S107L,Ctrl,ND ND ND ND ND ND,ND,0 of 18
F59Q,Ctrl,ND ND ND ND ND ND; ND ND ND ND ND ND; ND ND 1.82 ND 3.54 ND; ND ND ND ND 2.45 ND; ND ND ND ND ND ND,2.60,1 of 90 (1.36)
T28S+R100D,Ctrl+GPLM_Gen,0.72 0.53 0.51 0.86 0.66 0.63; 0.89 0.72 0.67 1.05 0.70 0.93,0.74,0 of 36
N30S+S35H+G61K,Ctrl,ND ND ND ND ND ND,ND,0 of 18
S31E+A101L+F105M+S107Q,Ctrl,ND ND ND ND ND ND,ND,0 of 18
T28E+R56V+A102P+G103L,Ctrl,ND ND ND ND ND ND,ND,0 of 18
A101N+A102P,Ctrl,ND ND 3.27 2.32 ND ND,2.79,1 of 18 (2.19)
G61Q+S63Q,Ctrl,ND ND ND ND ND ND,ND,0 of 18

A selection of 6 entries from above:

changes,group,"replicates, log10 nM",mean log10 Kd (nM),control signals
R100E+A101G,Ctrl,ND 1.67 2.08 2.23 1.82 2.09,1.98,0 of 18
G61Q+S63Q,Ctrl,ND ND ND ND ND ND,ND,0 of 18
R100G+A102E+G103W,Ctrl,ND ND ND ND ND ND,ND,0 of 18
N30G+S63Q+K65R+A101H,Ctrl,ND ND ND ND ND ND,ND,0 of 18
Y32Q+G61H+R100M+A101P,Ctrl,0.43 0.60 0.54 0.22 0.22 0.62,0.44,0 of 18
G26T+K65V,Ctrl,ND ND ND ND ND ND,ND,0 of 18

The authors' rule: three or more of the six replicates give a measured affinity, fewer mean a poor binder.
The range of this assay differs from that of the first round, and the authors advise against merging the two.
The parent sequence was in this pool as ten entries: three were never detected, three once, and four in most replicates, with averages from 0.34 to 2.37.
A sequence that the file lists under several names has all its replicates listed entry by entry, parted by semicolons.
Three control strains display no target. For all heavy chain designs, 1% of the pairings with them gave a signal, with a median of 2.08 and one signal in twenty below 0.84, so weak values seen in few replicates may be background. The control count says in how many pairings with the empty strains this scFv gave a signal, with their mean in brackets.